Data on one compound can be found in ChEMBL document CHEMBL1142299, “Coumarin as attractive casein kinase 2 (CK2) inhibitor scaffold: an integrate approach to elucidate the putative binding motif and explain structure-activity relationships” (J Med Chem, 2008).

The nature of this experiment: Inhibition of CK2 in rat liver. The essentials: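 Native CK2 purified from rat liver. Started with kinase, stopped at 10 min with orthophosphoric acid. Read by phosphocellulose filter binding and counting. Three independent experiments, values averaged.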

A value given as a limit tells only on which side of the number the result lay.

For orientation: IC50 means the midpoint of a concentration-inhibition curve. A lower IC50 goes with greater potency. In turn, `Cc1c([N+](=O)[O-])c(=O)oc2c([N+](=O)[O-])c(O)c([N+](=O)[O-])cc12` came in with an IC50 of over 100 µM.
